Source: patent US20030064380A1, “Anergy-regulated molecules” (The Center For Blood Research, Inc., priority 2001, published 2003)

Test system: D5 T cells
Assay: proliferation assay (3H-thymidine) of D5 T cells after ionomycin pretreatment
Format: cell-based, murine
Experimental: D5 or primary T cells were stimulated with APC and antigen and pulsed for 24 hours with 10 μCi/ml ^3H-thymidine. DNA was collected using a cell harvester and the amount of radioactivity incorporated was measured in a β-counter.
The murine antigen-specific Th1 clone D5 was used to set up the model of clonal anergy developed by Schwartz and coworkers (Schwartz, (1996) J. Exp. Med. 184: 1-8).

IL-2: cytokine; exposure to it overcame anergy
anergy of ionomycin-pretreated D5 T cells on exposure: overcome
